# Measured values reported in patent US8431396B2, “Anti-angiogenic peptides” (The Cleveland Clinic Foundation, priority 2003, dated 2013).
# Sequences of proteins named here, by UniProt entry; tags and fusion partners are left off. Residues count along the entry.
# UniProt P35968, 20-1356: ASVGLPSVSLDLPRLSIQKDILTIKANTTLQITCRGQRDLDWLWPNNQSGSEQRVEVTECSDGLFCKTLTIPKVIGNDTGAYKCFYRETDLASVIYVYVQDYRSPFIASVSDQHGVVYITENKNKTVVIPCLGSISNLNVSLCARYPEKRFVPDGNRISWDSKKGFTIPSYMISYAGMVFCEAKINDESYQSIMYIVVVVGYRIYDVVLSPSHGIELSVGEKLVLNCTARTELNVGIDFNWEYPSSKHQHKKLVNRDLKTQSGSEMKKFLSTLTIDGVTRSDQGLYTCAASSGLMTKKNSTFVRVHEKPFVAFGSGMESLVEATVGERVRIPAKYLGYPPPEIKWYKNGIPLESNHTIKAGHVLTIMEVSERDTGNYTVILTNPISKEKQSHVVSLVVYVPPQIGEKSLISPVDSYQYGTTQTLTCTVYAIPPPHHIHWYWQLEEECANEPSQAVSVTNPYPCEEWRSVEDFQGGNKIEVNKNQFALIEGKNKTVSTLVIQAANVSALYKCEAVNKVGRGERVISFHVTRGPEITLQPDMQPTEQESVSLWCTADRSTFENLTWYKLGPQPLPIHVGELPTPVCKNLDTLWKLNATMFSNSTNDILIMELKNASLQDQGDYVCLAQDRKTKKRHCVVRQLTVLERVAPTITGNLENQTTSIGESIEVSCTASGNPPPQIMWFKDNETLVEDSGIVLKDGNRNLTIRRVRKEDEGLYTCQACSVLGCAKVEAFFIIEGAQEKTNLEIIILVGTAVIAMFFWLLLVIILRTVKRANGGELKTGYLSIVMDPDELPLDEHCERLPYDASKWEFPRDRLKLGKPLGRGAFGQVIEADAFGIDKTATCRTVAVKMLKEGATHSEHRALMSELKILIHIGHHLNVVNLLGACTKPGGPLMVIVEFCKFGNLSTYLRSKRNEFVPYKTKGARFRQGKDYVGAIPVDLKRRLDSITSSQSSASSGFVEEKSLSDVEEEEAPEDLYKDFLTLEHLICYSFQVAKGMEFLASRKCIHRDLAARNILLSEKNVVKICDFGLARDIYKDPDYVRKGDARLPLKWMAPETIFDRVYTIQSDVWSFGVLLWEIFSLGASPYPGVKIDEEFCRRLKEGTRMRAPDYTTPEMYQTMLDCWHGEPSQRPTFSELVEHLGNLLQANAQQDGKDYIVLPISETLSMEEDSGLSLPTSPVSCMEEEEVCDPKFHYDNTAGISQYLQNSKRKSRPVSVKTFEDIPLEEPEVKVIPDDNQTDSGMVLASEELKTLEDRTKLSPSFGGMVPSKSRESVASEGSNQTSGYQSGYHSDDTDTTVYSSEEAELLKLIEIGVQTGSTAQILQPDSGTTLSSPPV
# pKd: −log10 of the molar value.
# Columns and labels:
# KDR = target: T1, KDR (Homo sapiens, UniProt P35968); assay: [125I]VEGF binding to the surface of PAE-KDR cells
# T1 construct: To determine whether these receptor isoforms represent full-length VEGFR-2; expressed in transfected cells; host or cells: porcine aortic endothelial (PAE) cells
# Procedure: Radioligand binding is expressed as percent binding and is the mean±s.e.m. of triplicate samples. […] All values are expressed as mean±s.e.m. of triplicate samples. […] Binding is expressed as mean±s.e.m.
# Data were analyzed by Scatchard plot analyses.
# VEGFR2 (KDR/Flk-1) = VEGFR2 (KDR/Flk-1) (Homo sapiens, UniProt P35968); conditions: read-out: Kd of VEGF binding to VEGFR2; cited from earlier work
substance,measurement,setting,value
VEGF [reference compound],IC50 for competition with labeled VEGF for binding to PAE-KDR cells,KDR,8.5 to 15 ng/mL
same,pKd,VEGFR2 (KDR/Flk-1),9.10 to 9.40
